Experimental data as given in patent US20120114590A1 (priority 2005, published 2012).

System: EMCV
Assay: EMCV antiviral assay (MTT dye uptake) in HepG2 cells
Type: cell-based, encephalomyocarditis virus
Conditions: cytokine 24 hours before EMCV challenge

In the case of “IFN-β: interferon beta (PBL Biomedical) [reference compound]”, the “EC50 (antiviral activity, OD570)” value was 0.46 ng/mL.
